Experimental data published in PubChem BioAssay (Tox21).
Values joined by “and” are separate entries in the source; they are usually repeats but may differ in a detail not shown here. Equal entries are not always repeated. The list shows a part of the results, in another mix than the full data. Inconclusive results are not listed. Active and inactive are the calls of the source. The call rests on the fitted dose curve; in most records, active means well fitted cell-killing curve with a large enough effect in the repeat runs; inconclusive means weak or mixed curves, or effect the other way; inactive means flat fitted curve, though single readings scatter.

Test: qHTS RealTime-Glo MT Cell Viability Assay in HEK293 cells - 40 hour (AID 1224874); further: nearly all actives have a fitted effect of over 50% in size
Conditions: RealTime-Glo luminescence, stronger effect = lower value
Excerpt: U.S. Tox21 Program National Center for Advancing Translational Sciences [NCATS] NIH Chemical Genomics Center [NCGC] U.S. Environmental Protection Agency [EPA] National Institutes of Environmental Health Sciences [NIEHS] National Toxicology Program [NTP] U.S. Food and Drug Administration [FDA] Tox21 Assay Overview: Measure of cell viability is critical in the cell-base assay. Analysis of cell viability is necessary for the characterization of cell responses to cytotoxic drugs and environmental stress. A RealTime-Glo MT Cell Viability Assay to monitor cell viability in real time of continues cell culture during 40 hours of compound treatment was used to screen Tox21 10K library compounds in Hek293 cells. The RealTime-Glo MT Cell Viability Assay is a nonlytic, homogeneous, bioluminescent method to measure cell viability in real time using a simple, plate-based method. The assay involves adding NanoLuc luciferase and a cell-permeant prosubstrate to cells in culture. Viable cells reduce the proprietary prosubstrate to generate a substrate for NanoLuc luciferase. This substrate diffuses from cells into the surrounding culture medium, where it is rapidly used by the NanoLuc Enzyme to produce a luminescent signal. The signal correlates with the number of viable cells, making the assay well suited for cytotoxicity studies.
Tox21 Assay Protocol Summary: The mixture of Hek293 cell suspension and reagents were dispensed at 600cells/6 ul/well in 1536-well tissue culture treated black solid bottom plates using a Multidrop dispenser. After the assay plates were incubated at a 37 C/5% CO2 incubator for 5 hours, 23 nL of compounds dissolved in DMSO, positive and negative controls was transferred to the assay plate by a pintool work station. The plates were incubated at 37 C for 40 hours. The luminescence intensity were measured at 0h, 8h, 16h, 24h, 32h and 40h time points using ViewLux plate reader during compound treatment.
On the % scale 0 is the no-effect control and ±100 the full control effect.

SMILES	max response
CCOP(=O)(CC)Oc1ccc([N+](=O)[O-])cc1 (configuration not stated)	inactive: -11.7%
CP(=O)(O)OCCC[Si](O)(O)O	inactive: -0.0233%
CN(C)CCCl	inactive: -1.13%
Cc1ccc([N+](=O)[O-])cc1[N+](=O)[O-]	inactive: -0.0089% and inactive: 3.62%
N=C(N)N[N+](=O)[O-]	inactive: -4.95%
COc1ccc([N+](=O)[O-])cc1[N+](=O)[O-]	inactive: 1.97%
CC(C)N(CCO)C(C)C	inactive: -7.13%
C/C1=C2N=C(/C=C3N=C(/C(C)=C4\[N-][C@@](C)([C@@H]5N=C1[C@](C)(CCC(=O)NC[C@@H](C)OP(=O)([O-])O[C@H]1[C@@H](O)[C@@H](n6cnc7cc(C)c(C)cc76)O[C@@H]1CO)[C@H]5CC(N)=O)[C@@](C)(CC(N)=O)[C@@H]4CCC(N)=O)[C@@](C)(CC(N)=O)[C@@H]\3CCC(N)=O)C(C)(C)[C@@H]/2CCC(N)=O.[C-]#N.[Co+3]	inactive: -5.82%
[NH4+].[O-][Cl+3]([O-])([O-])[O-]	inactive: 0.217% and inactive: 2.31%
COP(C)(=O)OC	inactive: 0.147% and inactive: -0.807%
O=[N+]([O-])[O-].[NH4+]	inactive: 2.89% and inactive: 3.5%
CCOP(=O)(CC)OCC	inactive: 7.05%
O=[N+]([O-])OCC(CO[N+](=O)[O-])(CO[N+](=O)[O-])CO[N+](=O)[O-]	inactive: 3.21%
CCN(CC)CCCl	inactive: 2.97%
CC(C)OP(C)(=O)OC(C)C	inactive: 14.7%
N#CBr	inactive: 11.5%
OCCSCCO	inactive: -3.61% and inactive: 3.35%
